Consider two molecules from ChEMBL document CHEMBL1149659 (Bioorg Med Chem Lett, 2007).

This experiment relates to 3T3-L1 (Mus musculus). Nature of the experiment: Inhibition of [1-14C]sodium acetate uptake in mouse 3T3-L1 cells at 2 uM.

The structures appear in SMILES notation.

In general, inhibition refers to how much of the control response was suppressed. Higher therefore signals a strong effect. As to `COc1c(C)c2c(c(OC)c1C/C=C(\C)CCC(=O)O)C(=O)OC2`, the inhibition came to 14%.

Molecule `COC(=O)CC/C(C)=C/Cc1c(O)c2c(c(C)c1OC)COC2=O` showed an inhibition of 67%.
